Measurements taken from US20220325122A1, “Ink Set And Recording Method” (Seiko Epson Corporation, priority 2021, published 2022).

Details: water at 20° C.; stated in words

N,N-dimethylisopropanolamine
miscibility with water: completely miscible with water
